Entries after “also recorded” stand apart in the source; their conditions may differ. Marks after values point to notes of the source that are not given here.
System: BALB/c mice
Assay: Animal toxicity (clinical signs, serum chemistry, histopathology)
Conditions: for AP / BUN / Bilirubin / Globulin / Glucose / Total Prot. / ALT / AST: serum, blood 48 h after administration, group mean; for ALT / AST: in U/L (unit assumed)
Procedure: Twelve groups of two BALB/c mice each, 4-6 weeks of age and weighing 12-24 g (mean=19 g), were used for toxicity studies. There were 8 female and 16 male mice. Mice in groups 1, 3, 5, 7, and 9 were administered TBP 19 once via i.p. injection, at increasing dosages: group 1 (20 mg/kg of a 2 mg/ml solution), group 3 (40 mg/kg of a 2 mg/ml solution), group 5 (80 mg/kg of a 4 mg/ml solution), group 7 (120 mg/kg of a 4 mg/ml solution), and group 9 (160 mg/kg of a 4 mg/ml solution). Mice in groups 2, 4, 6, 8, and 10 were administered porphyrin 20 once via i.p. injection at increasing dosages: group 2 (20 mg/kg of a 2 mg/ml solution), group 4 (40 mg/kg of a 2 mg/ml solution), group 6 (80 mg/kg of a 4 mg/ml solution), group 8 (120 mg/kg of a 4 mg/ml solution), and group 10 (160 mg/kg of a 4 mg/ml solution). Two groups of mice served as vehicle controls. Mice in group 11 received sterile 4% Cremophor EL (Fluka) in PBS and served as controls for mice receiving 20, 40, and 80 mg/kg compound; while mice in group 12 received 6% Cremophor EL and served as controls for mice receiving 120 and 160 mg/kg compound.
For each compound, groups were dosed sequentially and each group was evaluated daily for signs of toxicity, including hunched posture, rough hair coat, and decreased responsiveness. Mice were anesthetized with CO2 48 h after compound administration, and blood was collected by cardiocentesis for clinical chemistry evaluation. Serum chemistry was analyzed, including glucose, aspartate aminotransferase (AST), alanine aminotransferase (ALT), alkaline phosphatase (AP), bilirubin, total protein (TP), albumin, globulin, and blood urea nitrogen (BUN). The mice were exsanguinated and necropsies were performed. Tissues, including lung, kidney, thymus, heart, Harderian gland, spleen, stomach, small intestine and colon were fixed in 10% neutral buffered formalin. The fixed tissues were processed and examined by a board-certified pathologist.

[1] = BALB/c mice, 20 mg/kg single i.p. injection
[2] = BALB/c mice, 40 mg/kg single i.p. injection
[3] = BALB/c mice, 80 mg/kg single i.p. injection
[4] = BALB/c mice, 120 mg/kg single i.p. injection
[5] = BALB/c mice, 160 mg/kg single i.p. injection

**Q.** What does the source list for “tetra(nido-carboranylphenyl)porphyrin [Compound 20, reference compound]”?
**A.** toxicity to BALB/c mice (160 mg/kg, single i.p. injection, 4 mg/mL, listed as porphyrin 20): non-toxicity; also recorded: non-toxic; signs of toxicity (BALB/c mice, 20-160 mg/kg single i.p. injection, daily evaluation): No signs of toxicity; serum chemistry changes attributable to compound (BALB/c mice, i.p., maximum 160 mg/kg): No serum chemistry changes were observed; clinical, biochemical, or histopathological effects attributable to administration (BALB/c mice, single i.p. injection up to 160 mg/kg): No clinical, biochemical, or histopathological effects were observed; toxicity compared with other negatively charged carboranyl-containing porphyrins (BOPP, MnBOPP, BTPP, NiNTCP-H, ZnDPE, NiDPE) (mice, preliminary results): significantly less toxic; AP [1]: 167.5^a; BUN [1]: 26.5 mg/dL; Bilirubin [1]: 0.2 mg/dL; Globulin [1]: 1.6^a; Glucose [1]: 159.5^a; Total Prot. [1]: 4.3^a; ALT [1]: 98.5; AST [1]: 146.0; AP [2]: 132.0^a,c; BUN [2]: 24 mg/dL; Bilirubin [2]: 0.25 mg/dL; Globulin [2]: 2.0^b; Glucose [2]: 188.0^b; Total Prot. [2]: 4.6^a,b; ALT [2]: 94.0; AST [2]: 202.0; AP [3]: 148.0^a,c; BUN [3]: 27.5 mg/dL; Bilirubin [3]: 0.25 mg/dL; Globulin [3]: 2.35^c; Glucose [3]: 153.5^a; Total Prot. [3]: 5.0^b; ALT [3]: 340.0; AST [3]: 258.0; AP [4]: 160.5^a; BUN [4]: 16.0^a; Bilirubin [4]: 0.25 mg/dL; Globulin [4]: 2.4^a; Total Prot. [4]: 4.9 g/dL; ALT [4]: 968.0; AST [4]: 774.0; Glucose (BALB/c mice, 120 mg/kg single i.p. injection, in mg/dL (unit assumed)): 239.5; AP [5]: 223.0^b; BUN [5]: 25.5^a,b; Bilirubin [5]: 0.25 mg/dL; Globulin [5]: 2.0^b; Total Prot. [5]: 4.5 g/dL; ALT [5]: 1096.0; AST [5]: 981.0; Glucose (BALB/c mice, 160 mg/kg single i.p. injection, in mg/dL (unit assumed)): 214.5

From patent US8071760B2, “Boron-containing porphyrin compounds and their uses” (Board of Supervisors of Louisiana State University and …, priority 2005, dated 2011)
